# System: scalp of a human subject (hairline recession, hair loss and thinning)
# Assay: Topical administration to the scalp of a human subject with hairline recession, hair loss and thinning
# Conditions: same human subject; 2% miconazole nitrate topical twice per day
smiles,measurement,value
Clc1ccc(COC(Cn2ccnc2)c2ccc(Cl)cc2Cl)c(Cl)c1 (stereo not shown) [miconazole],"results compared with previous administration of minoxidil (5%) or finasteride (1.25 mg daily), including both in combination",superior

# From US20250032457A1, “METHODS OF TREATING ANDROGENIC ALOPECIA AND/OR SKIN CONDITIONS” (priority 2020, published 2025)
